This note sets out measurements from publication PMC6174881 (Journal of medicinal chemistry, 2018).

The chains behind the UniProt entries cited, without tags or fusion partners.
UniProt P56450, whole entry: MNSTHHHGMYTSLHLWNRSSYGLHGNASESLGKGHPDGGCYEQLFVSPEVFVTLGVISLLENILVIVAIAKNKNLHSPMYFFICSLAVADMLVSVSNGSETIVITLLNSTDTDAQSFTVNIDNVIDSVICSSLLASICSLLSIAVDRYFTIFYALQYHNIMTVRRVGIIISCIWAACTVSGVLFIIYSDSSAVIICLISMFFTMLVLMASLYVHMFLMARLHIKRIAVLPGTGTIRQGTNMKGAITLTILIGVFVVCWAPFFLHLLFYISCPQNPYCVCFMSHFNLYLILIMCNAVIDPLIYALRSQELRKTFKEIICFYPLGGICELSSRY

This test concerns the target mMC4R (Mus musculus, UniProt P56450).

For the compound `C[C@@H]1NC(=O)[C@H](CN)NC(=O)[C@H](Cc2ccccc2)NC(=O)[C@H](Cc2ccccc2)NC(=O)[C@H](CCCNC(=N)N)NC(=O)[C@@H]2CCCN2C(=O)[C@H]2CCCN2C(=O)[C@H](Cc2ccccc2)NC1=O` [Compound 5, c[Pro-Arg-Phe-Phe-Dap-Ala-Phe-DPro]], the Kb is 1.26 nM.
